The list is not random: actives were taken first. Their share in the collection is about 2.2%.
ERp5 inh: ERp5 (human) disulfide isomerase inhibition. Q15084. ERp5 insulin aggregation, absorbance 650 nm, 90 min. inhibition, % at 9.99 µM. 0.05% of 350,000 active. AID 651711;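 active = mean replicate inhibition above about 25%, with every replicate also reaching it, limit read from the data, passing the limit was not always enough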
FGF22 binding-1: binders of recombinant human FGF22 by thermal shift; activity (Tm shift, normalised), % at 9.99 µM; SYPRO orange fluorescence; percent of sucrose octasulfate shift, DMSO zero; Q9HCT0; 1.5% of 340,000 active;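 active = mean Tm shift, scaled 0 neutral to 100 positive control, at about 1.3% or above, every replicate too, limit read from the data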
S100A4 inh HTS: inhibitors of human S100A4 binding to myosin IIA peptide; inhibition, % at 10.7 µM; AID 652163; S100A4/TAMRA-MyoIIA peptide fluorescence polarization; 0.14% of 360,000 active; P26447;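 active = mean inhibition of at least 70% across replicates, with every replicate also reaching that level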
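System – human S100A4 monomer protein, biochemical binding assay · Buffer or medium – Calcium-containing HEPES buffer, pH 7.2 · Timing – 5 min between mix addition and reading · Also added – TAMRA-labelled myosin IIA heavy-chain peptide probe, 5 nM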
SIRT5 block: sirtuin-5 (human) deacylase inhibition | Q9NXA8 | inhibition, % at 15 µM | 1.1% of 330,000 active | Purified SirT5, succinyl-peptide AMC, trypsin-coupled fluorescence; in the data active = inhibition above about 15%
PDI turbidity: blocks human protein disulfide isomerase activity | P07237 | PDI insulin aggregation turbidity, A650, 90 min | inhibition, % at 10 µM | 0.052% of 350,000 active | AID 588391;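 active = mean inhibition across replicates of 30% or more, whatever share of single replicates reach that level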
Yeast UUG start: modulators of yeast start codon fidelity, primary screen, whole organism, S. cerevisiae, single point, plate reader; S. cerevisiae UUG-firefly luciferase reporter, luminescence/redox ratio; activity score, % at 18.7 µM; 0.13% of 350,000 active; AID 602363, 2012;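 active = replicate mean at a twofold rise or more, about +100% in these data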;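 also: firefly luciferase made from a UUG start codon reports start codon fidelity; reporter light over untreated wells divided by growth signal over untreated wells; some hits fall short of that in this replicate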
FGF22 binding-2: binders of human FGF22 by thermal shift. recombinant FGF22 thermal shift, SYPRO orange fluorescence. 2% of 1,000 active. AID 720646. shares compounds with FGF22 binding-1. thermal shift activity, °C (ΔTm) at 38 µM;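 active = fitted rise in melting shift crosses a set limit at or below the top valid dose tested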
FGF22 TSA DP: FGF22 (human) binding by thermal shift; shares compounds with FGF22 binding-1; Thermal shift assay, SYPRO orange, melting temperature shift; Tm shift (activity), % at 38 µM; 50 tested, under 10 active; AID 743017;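 active = compounds whose fitted dose curve of melting temperature shift rises past a set threshold within the tested doses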
SYPRO no-protein: compound-only SYPRO artifact for FGF22 binders; 2% of 1,000 active; shares compounds with FGF22 binding-1; AID 743019; AC50, µM (doses to about 38 µM); compound-only SYPRO orange thermal shift counter-screen, no protein;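 active = rising signal whose fitted curve reaches the 0.54 level within the top valid dose, showing a melting point, actives reach about 13 µM in these data; inactive = the rest, including activity in the opposite direction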; note: value is where the raw curve crosses a fixed level and not half-maximal
* = called active by the depositor.

`CC(C)(CNCc1ccccc1)NS(=O)(=O)c1ccc(Cl)cc1` gave ERp5 inh -7, FGF22 binding-1 2.1*, S100A4 inh HTS 11, SIRT5 block 0, PDI turbidity 4, Yeast UUG start -8, FGF22 binding-2 0.057 and SYPRO no-protein inactive.
Cc1ccc(S(=O)(=O)c2nnn(-c3cccc(F)c3)c2N)cc1 was read as ERp5 inh -18, FGF22 binding-1 1.5*, S100A4 inh HTS 11, SIRT5 block -2, PDI turbidity 6, Yeast UUG start 1, FGF22 binding-2 -0.014 and SYPRO no-protein inactive.
For COc1ccc(S(=O)(=O)c2nnn(-c3cccc(OC)c3)c2N)cc1 the results were ERp5 inh 6, FGF22 binding-1 0, S100A4 inh HTS 0, SIRT5 block -2 and PDI turbidity 4.
Cc1cc(C)cc(NC(=O)CN2C(=O)NC(Cc3c[nH]c4ccccc34)C2=O)c1 (stereo not drawn) was read as ERp5 inh -9, FGF22 binding-1 1.6*, S100A4 inh HTS -1, SIRT5 block 0, PDI turbidity -8, Yeast UUG start -6 and SYPRO no-protein inactive.
For O=C(O)C[C@H]1C[C@H]2c3cc(NC(=O)c4ccc5c(c4)OCO5)ccc3O[C@H]2[C@H](CO)O1 the results were ERp5 inh -11, FGF22 binding-1 0, S100A4 inh HTS 14, SIRT5 block 7 and Yeast UUG start -23.
Screening COc1ccc(Nc2nc3ccc(OC)cc3s2)cc1 returned ERp5 inh -3, FGF22 binding-1 1.5*, S100A4 inh HTS -2, SIRT5 block 16*, PDI turbidity -1, FGF22 binding-2 0.047, FGF22 TSA DP 0 and SYPRO no-protein inactive.
COc1ccc2nc(NC(=O)CCc3cc(OC)c(OC)c(OC)c3)sc2c1 was read as ERp5 inh 4, FGF22 binding-1 1.9*, S100A4 inh HTS -5, SIRT5 block -3, PDI turbidity 0, FGF22 binding-2 -0.32 and SYPRO no-protein inactive.
For Cc1nc2ccc(NC(=O)c3ccc(Cl)c([N+](=O)[O-])c3)cc2s1 the results were ERp5 inh 4, FGF22 binding-1 0, S100A4 inh HTS 0, SIRT5 block 0, PDI turbidity -1 and Yeast UUG start -16.
`Cc1nc2ccc(NC(=O)c3cc([N+](=O)[O-])cc([N+](=O)[O-])c3Cl)cc2s1` gave ERp5 inh 0, FGF22 binding-1 2.1*, S100A4 inh HTS -2, SIRT5 block 1, PDI turbidity -1, Yeast UUG start -19, FGF22 binding-2 0.23 and SYPRO no-protein inactive.
Screening CN(C)CCCNC(=O)[C@H]1[C@H](CO)[C@H]2Cn3c(ccc(-c4cccc(F)c4)c3=O)[C@H]2N1C returned ERp5 inh -8, FGF22 binding-1 0 and SIRT5 block -5.
For O=C(CNc1ccccc1OC(F)F)N1CCc2ccccc21 the results were ERp5 inh -4, FGF22 binding-1 1.4*, S100A4 inh HTS -1, SIRT5 block -4, PDI turbidity 1, FGF22 binding-2 0.067 and SYPRO no-protein inactive.
For O=C(CNCCO)N1CCc2ccccc21 the results were PDI turbidity 4 and Yeast UUG start -8.
For CC1=NN(c2ccccc2)C(=O)C1N=Nc1ccccc1 (stereo not drawn) the results were ERp5 inh 1, FGF22 binding-1 0, S100A4 inh HTS 3, SIRT5 block 1 and PDI turbidity 8.
For COc1ccc(N=NC2C(=O)N(c3ccccc3)N=C2C)cc1 (stereo not drawn) the results were ERp5 inh 2, FGF22 binding-1 1.6*, S100A4 inh HTS 4, SIRT5 block -3, PDI turbidity 6, FGF22 binding-2 -0.059 and SYPRO no-protein inactive.

Arranged by heavy-atom count (falling): some entries from above
COc1ccc2nc(NC(=O)CCc3cc(OC)c(OC)c(OC)c3)sc2c1 was read as ERp5 inh 4, FGF22 binding-1 1.9*, S100A4 inh HTS -5, SIRT5 block -3, PDI turbidity 0, FGF22 binding-2 -0.32 and SYPRO no-protein inactive.
Cc1ccc(S(=O)(=O)c2nnn(-c3cccc(F)c3)c2N)cc1 was read as ERp5 inh -18, FGF22 binding-1 1.5*, S100A4 inh HTS 11, SIRT5 block -2, PDI turbidity 6, Yeast UUG start 1, FGF22 binding-2 -0.014 and SYPRO no-protein inactive.
For CC1=NN(c2ccccc2)C(=O)C1N=Nc1ccccc1 (stereo not drawn) the results were ERp5 inh 1, FGF22 binding-1 0, S100A4 inh HTS 3, SIRT5 block 1 and PDI turbidity 8.
